The conditions of this data set: formation of turbidity upon heating a polymer solution dispersed in water.

With “zidovudine-poly-N-isopropylmethacrylamide”, the “lower critical solution temperature” value is “approximately 52 °C”.

These data come from US20220372549A1, “Thermally Responsive Conjugates” (MIP Diagnostic Limited, priority 2019, published 2022).
